Measured values from ChEMBL document CHEMBL1133118 (J Med Chem, 2000).

Protein sequences, listed by entry. Tags and fused reporters are not part of them. Lines headed by an entry give the natural chain unless they say otherwise; changes in a name come on top.
UniProt P29275: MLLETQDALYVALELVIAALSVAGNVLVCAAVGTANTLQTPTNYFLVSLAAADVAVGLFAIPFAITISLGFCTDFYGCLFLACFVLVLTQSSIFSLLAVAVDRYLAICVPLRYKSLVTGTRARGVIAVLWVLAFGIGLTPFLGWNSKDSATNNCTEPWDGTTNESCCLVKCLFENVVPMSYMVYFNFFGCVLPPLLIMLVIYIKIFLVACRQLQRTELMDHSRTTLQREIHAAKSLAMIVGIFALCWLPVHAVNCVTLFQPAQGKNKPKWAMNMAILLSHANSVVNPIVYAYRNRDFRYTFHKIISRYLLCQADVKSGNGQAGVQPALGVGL
UniProt P0DMS8, whole entry, looked up: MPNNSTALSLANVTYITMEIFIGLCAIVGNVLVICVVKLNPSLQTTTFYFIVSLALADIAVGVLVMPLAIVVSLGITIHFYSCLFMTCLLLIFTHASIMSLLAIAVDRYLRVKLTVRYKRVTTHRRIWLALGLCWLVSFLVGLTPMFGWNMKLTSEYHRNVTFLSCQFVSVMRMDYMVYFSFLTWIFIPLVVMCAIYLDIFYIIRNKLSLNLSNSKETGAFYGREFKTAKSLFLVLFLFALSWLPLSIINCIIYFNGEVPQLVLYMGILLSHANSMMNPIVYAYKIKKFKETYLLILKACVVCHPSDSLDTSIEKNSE
UniProt P30542, whole entry, looked up: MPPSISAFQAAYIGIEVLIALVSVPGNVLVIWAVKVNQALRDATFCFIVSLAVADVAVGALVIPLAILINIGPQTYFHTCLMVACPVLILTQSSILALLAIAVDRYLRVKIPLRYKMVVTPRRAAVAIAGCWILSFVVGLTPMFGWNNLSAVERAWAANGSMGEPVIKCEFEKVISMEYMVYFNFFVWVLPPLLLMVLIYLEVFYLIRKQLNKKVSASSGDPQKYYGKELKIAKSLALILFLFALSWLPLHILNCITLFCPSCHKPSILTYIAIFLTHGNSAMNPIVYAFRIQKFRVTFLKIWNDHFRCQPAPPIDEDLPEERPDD

Legend:
[1] = molecular target: Adenosine receptors; A2b & A3 (Homo sapiens) (UniProt P29275+P0DMS8); experiment: Ratio of binding affinity of human A2B receptor to that of human A3 receptor; type: protein assay
Outline: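 Ki ratio, n=3-6, 6–8 concentrations. A2B in HEK-293 membranes (20 μg): 40 nM [3H]DPCPX, 50 mM Tris HCl, 10 mM MgCl2, 1 mM EDTA, 0.1 mM benzamidine pH 7.4, 2 IU/mL adenosine deaminase, 60 min at 25 °C, nonspecific with 100 μM NECA. A3 in CHO membranes (50 μg): 1 nM [3H]MRE3008-F20, 120 min at 4 °C.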

[2] = molecular target: Adenosine receptors; A1 & A3 (Homo sapiens) (UniProt P30542+P0DMS8); experiment: Ratio of binding affinity of human A1 receptor to that of human A3 receptor; type: protein assay
Outline: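 Ki ratio from displacement in CHO membranes, 6–8 concentrations, n=3-6, filtration counting. A1: 1 nM [3H]DPCPX, 50 μg protein, 120 min at 25 °C, nonspecific with 10 μM CHA. A3: 1 nM [3H]MRE3008-F20, 50 μg protein, Tris/10 mM MgCl2 pH 7.4, 120 min at 4 °C, nonspecific with 1 μM MRE3008-F20.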

Adenosine receptor A3 [3] = molecular target: T1, Adenosine receptor A3 (Homo sapiens, UniProt P0DMS8); experiment: Inhibition of cAMP accumulation in CHO cells expressing human adenosine A3 receptor; range 4.4-6.5; type: functional, cell-based
Adenosine receptor A3 [4] = molecular target: T1, Adenosine receptor A3; experiment: biochemical

Ratio [1]: 2570 | Ratio [2]: 1500 | IC50 (Adenosine receptor A3 [3]): 5.2 nM | Ki (Adenosine receptor A3 [4]): 0.8 nM
Compound: CCCn1cc2c(nc(NC(=O)Nc3ccc(OC)cc3)n3nc(-c4ccco4)nc23)n1
